Earlier results in patent publication US20240041861A1, “COMPOSITIONS AND METHODS FOR TREATMENT AND PROPHYLAXIS OF VIRAL INFECTIONS” (priority 2020, published 2024).

Legend:
human subjects = settings: in vivo
rats = settings: rat, in vivo, 1500 mg/kg/day

Bromelain
changes in blood coagulation parameters (human subjects): without significant changes
carcinogenic or teratogenic effects (rats): no carcinogenic or teratogenic effects
